Test results as given in patent US12257352B2, “Compositions and methods for delivery of biomacromolecule agents” (The Regents of the University of Michigan, priority 2016, dated 2025).

Experiment: Storage stability of sHDL formulations
Assay type: physicochemical
Settings: DMPC sHDL stored at 4° C.

PVLDLFRELLNELLEALKQKLK [22A]
stability of sHDL suspension: stable for one month
